From paper PMC5952519, “Screening a repurposing library, the Medicines for Malaria Venture Stasis Box, against Schistosoma mansoni” (Parasites & Vectors, 2018)

Experiments:
[1] = test system: newly transformed schistosomula (NTS) of Schistosoma mansoni; assay: In vitro assay on newly transformed schistosomula (NTS), viability scoring by microscopy; details: 72 h, read-out: NTS IC50
MRC5 cells = assay: Cytotoxicity on MRC5 cells (values provided by MMV); format: cell-based; details: CC50 on MRC5 cells (provided by MMV) divided by IC50 on the parasites
adult S. mansoni [2] = assay: In vitro assay on adult S. mansoni worms, viability scoring by microscopy; details: Schistosoma mansoni, 72 h, read-out: Adult IC50
adult S. mansoni [3] = assay: In vitro assay on adult S. mansoni worms in albumin-enriched medium (45 g/l); details: Schistosoma mansoni, 48 h, read-out: Adult IC50 with albumin

SMILES | IC50 [1] | MRC5 cells SI (selectivity index) (MRC5 cells) | IC50 (adult S. mansoni [2]) | IC50 (adult S. mansoni [3])
Nc1nc2ccc(Cl)cc2c2nc(-c3ccco3)nn12 [MMV001539] | 1700 nM | – | – | –
COc1ccc(NC(=O)c2ccc(-c3ccc(-c4noc(C)n4)cc3C)cc2)cc1N1CCN(C)CC1 [MMV003452] | 1200 nM | 0.7 | 2700 nM | 12000 nM
O=C(O)Cc1cccc(OCCCN(Cc2cccc(C(F)(F)F)c2Cl)CC(c2ccccc2)c2ccccc2)c1 [MMV690466] | 2100 nM | – | – | –
Fc1ccc(Cl)cc1-c1nc(Nc2ccncc2)c2nccnc2n1 [MMV690534] | 7200 nM | – | 7500 nM | –
CC#CC(=O)Nc1ccc2ncnc(Nc3cccc(Br)c3)c2c1 [MMV690684] | – | – | 3700 nM | –
CNCc1ccc(C)c(NC(=O)c2ccc(Nc3nc(-c4ccccc4)c4ccccc4n3)cc2)c1 [MMV690732] | 3500 nM | 0.7 | 2500 nM | –
CCOc1cc2ncc(C#N)c(Nc3ccc(F)c(Cl)c3)c2cc1NC(=O)/C=C/CN(C)C [MMV690765, Pelitinib] | – | – | 2900 nM | –
